TDP1 inh = inhibitors of human tyrosyl-DNA phosphodiesterase TDP1; Q9NUW8; recombinant TDP1, AlphaScreen DNA substrate cleavage; Potency, µM (top dose mostly 130 µM), actives largely listed as inhibitors; 350,000 compounds, 0.28% hits; note: nearly all actives have a fitted effect of over 40% in size
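Here, a 5' biotin and 3' phosphotyrosine-FITC DNA oligonucleotide reports Tdp1 activity: intact substrate bridges AlphaScreen beads, while cleavage leaves a 3' phosphate and drops signal. All incubations at room temperature.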
DT40 TDP1 no CPT = qHTS for Inhibitors of human tyrosyl-DNA phosphodiesterase 1 (TDP1): qHTS in cells in absence of CPT | DT40 Tdp1-/- hTDP1 cells, no CPT, ATP luminescence, 48 h | 420,000 compounds, 15% hits | Potency, µM (doses to about 46.2 µM), usual class: inhibitors; note: nearly all actives have a fitted effect of over 55% in size
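Cells were dispensed at 400 per well, compounds added by pin tool, plates incubated ≥48 hr at 37 °C, then CellTiter-Glo added for 30 min at room temperature before luminescence reading. Line: DT40 Tdp1-/- complemented with hTDP1; camptothecin omitted.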
uPA generation = inhibitors of cell surface uPA generation. cell surface uPA generation assay, qHTS. Potency, µM (top dose mostly 38.3 µM), usual class: inhibitors. 330,000 compounds, 0.31% hits. AID 540303; active = well fitted inhibition curve with a large enough effect; inconclusive = small, poorly fitted or top-dose-only effect; inactive = no such curve, though single readings can be large or run the other way; tested in mouse RAW 264.7 cells; note: nearly all actives have a fitted effect of over 55% in size
DT40 TDP1 CPT = growth inhibition of DT40 Tdp1-/-;hTDP1 cells with camptothecin (screen for TDP1 inhibitors); Potency, µM (doses to about 46.2 µM), most hits filed as inhibitors; chicken DT40 Tdp1-/-;hTDP1 cells + 20 nM CPT, ATP luminescence, 48 h; 420,000 compounds, 12% hits; note: nearly all actives have a fitted effect of over 55% in size
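Cell growth measured by CellTiter-Glo luminescence after a minimum 48 h, 37 C compound exposure with 20 nM CPT in Tdp1-knockout DT40 cells stably expressing hTDP1, seeded 400/well; qHTS titration format.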
miR-21 reporter = miR-21 reporter, rising signal | HeLa miR-21 FLuc reporter, luciferase, 48 h | Potency, µM (doses to about 38.3 µM) | 340,000 tested, under 10 active | AID 2288; active = well fitted rising curve with a large enough effect; inconclusive = small, poorly fitted or top-dose-only effect; inactive = no such curve, though single readings can be large or run the other way;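 note: miR-21 action dims this reporter so a rising signal means less miR-21 action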
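HeLa cells endogenously expressing miR-21, stably carrying CMV-driven firefly luciferase with a downstream miR-21 binding site, 2000 cells/well. Titrations up to approximately 40 uM, 48 hours; luciferase luminescence read.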
A number is an active result; 0 = inactive; ? = inconclusive; - = not tested or not shown; [ ] = remark or other dose. Shown are actives, neighbours in structure and some others; about 16% of the full set was active somewhere. Unless noted, calls come from the whole dose curve; as a rule, active = well fitted curve in the direction sought with a large enough effect; inconclusive = small, poorly fitted or top-dose-only effect, or another doubt; inactive = no such curve, though single readings can be large; an effect the other way counts as inactive or inconclusive.

SMILES	TDP1 inh	DT40 TDP1 no CPT	uPA generation	DT40 TDP1 CPT	miR-21 reporter
COc1cc(COc2ccc(-c3nnco3)cc2)ccc1OC(F)F	0	0	0	0	0
C[C@H](CO)N1C[C@H](C)[C@@H](CN(C)S(=O)(=O)c2cccs2)Oc2ccc(NS(=O)(=O)c3ccc(F)cc3)cc2C1=O	0	0	0	0	-
N#C/C(=C\c1ccc([N+](=O)[O-])o1)C(=O)Nc1ccc(F)cc1	0	2.3µM	0	1.3µM	0
Cc1ccc(/C=C(\C#N)C(=O)Nc2ccc(Br)cc2)o1	0[12.3 µM]	0	-	0	0
Cc1cc(/C=c2\sc3nc4ccccc4n3c2=O)c(C)n1-c1ccc(C(=O)O)cc1	-	13µM	0	13µM	0
Cc1cc(/C=c2/sc3nc4ccccc4n3c2=O)c(C)n1-c1ccccn1	0	18µM	-	?	0
COc1cccc(N2CCN(C(=O)c3ccc(C)c(NC(=O)c4nsc5ccccc45)c3)CC2)c1	0	18µM	-	?	0
Cc1ccc(C(=O)N2CCN(c3ccc(F)cc3)CC2)cc1NC(=O)c1nsc2ccccc12	0	21µM	-	16µM	0
COc1ccc(N2CCN(C(=O)c3ccc(C)c(NC(=O)c4ccco4)c3)CC2)cc1	0	?	0	?	0
Cc1ccc(S(=O)(=O)N(CC(=O)NCc2ccc(F)cc2)C(=O)N2CCN(C)CC2)cc1	0	0	0	0	-
CCOc1ccccc1NC(=O)c1nc(-c2ccccc2)oc1C	0	0	0	?	0
CCCCN1CC(COCc2ccccc2)Oc2cccc(F)c2S1(=O)=O (stereo not given)	-	?	0	?	-
C[C@@H](c1ccccc1)N1C[C@@H](COCc2ccccc2)Oc2cc(N3CC[C@@H](N(C)C)C3)ccc2S1(=O)=O	-	15µM	-	?	-
C[C@H](c1ccccc1)N1C[C@H](COCc2ccccc2)Oc2cc(N3CC[C@@H](N(C)C)C3)ccc2S1(=O)=O	-	0	-	0	-
CCCCC[C@H](C)N1C[C@H](COCc2ccccc2)Oc2cc(N3CC[C@H](N(C)C)C3)ccc2S1(=O)=O	-	16µM	-	?	-
CCCCC[C@@H](C)N1C[C@H](COCc2ccccc2)Oc2cc(N3CC[C@@H](N(C)C)C3)ccc2S1(=O)=O	-	21µM	-	23µM	-
CCCCC[C@@H](C)N1C[C@@H](COCc2ccccc2)Oc2cc(N3CC[C@@H](N(C)C)C3)ccc2S1(=O)=O	-	23µM	-	21µM	-
COc1ccccc1CNC(=O)c1ccc(N2Cc3cccc(OC)c3Oc3ncccc32)s1	0	12µM	-	15µM	0
COc1ccc(/C=C/C(=O)OCC(=O)Nc2cc(C(F)(F)F)ccc2Cl)cc1	0	12µM	0	?	0
O=C(COC(=O)/C=C/c1ccc(C(F)(F)F)cc1)NC1CCS(=O)(=O)C1 (stereo not given)	0[0.505 µM]	21µM	0	?	-
COc1ccc(/C=C/C(=O)OCC(=O)NC2CCS(=O)(=O)C2)cc1 (stereo not given)	0	0	0	0	-
COc1ccc(/C=C/C(=O)OCC(=O)Nc2cc(C(N)=O)cc(C(N)=O)c2)cc1	0	0	0	0	0
COc1ccccc1C(=O)C1CCCN(C(=O)c2ccc(C(C)=O)s2)C1 (stereo not given)	0	0	0	0	0
O=C(OCC(=O)c1ccc(Cl)cc1Cl)c1ccc2c(c1)C(=O)N(c1cccc3ncccc13)C2=O	0	0	0	0	0
Cc1ccc(C(=O)Nc2sc3c(c2C(=O)O)CCCC3)o1	0	?	?	?	0
COC(=O)c1c(NC(=O)c2cccs2)sc2c1CCC(C)C2 (stereo not given)	0	?	0	?	0
Cc1ccc(C(=O)Nc2sc3c(c2C(=O)O)CCCCC3)o1	0	15µM	0	?	?
Cc1ccc(C(=O)Nc2sc3c(c2C(=O)O)CCC(C)C3)o1 (stereo not given)	0	21µM	?	?	-
Cc1cccc(NC(=O)c2c(NC(=O)c3ccco3)sc3c2CCC(C)C3)c1 (stereo not given)	0[2.28 µM]	?	-	?	0
CC1CCc2c(sc(NC(=O)c3cccs3)c2C(=O)O)C1 (stereo not given)	-	?	4µM	?	0

Bioassay records from PubChem.
